From US9138479B2, “Formulations for the treatment of diabetes” (XERIS PHARMACEUTICALS, INC., priority 2011, dated 2015)

Experiment: Pramlintide solubility in DMSO and DMSO-water co-solvents (visual inspection)
Type: physicochemical
Method: • 3b. Alternatively, aqueous insulin or pramlintide solution is dispensed into microcentrifuge tubes and dried by centrifugation under vacuum and gentle heat (25-30° C.). • 4. Dried insulin or pramlintide powder at the selected pH memory is dissolved in DMSO by gentle pipetting to the desired concentration, or the concentration permitted by the particular buffer system and pH. • 5. The resulting solutions are assessed visually for clarity and/or analyzed for light scattering using visible spectroscopy at […], and used in various downstream applications.
Solutions of pramlintide were prepared at a concentration of 2 mg/mL in 10 mM citrate, pH 2.0, or 10 mM citrate, pH 4.0, each with or without 2 mg/mL trehalose. The solutions were dried by centrifugation under vacuum for approximately 3.5 hours at 25-30° C., or lyophilized as described above.

solubility in neat DMSO (dried citrate-buffered, pH memory 2.0, with and without trehalose, 20 mg/mL (highest concentration tested)): completely dissolved
solubility in water (dried citrate-buffered, pH memory 4.0): effectively insoluble
solubility in neat DMSO (dried citrate-buffered, pH memory 4.0, 2 mg/mL): somewhat resistant to reconstitution
solubility in DMSO with added water (pH memory 4.0, between 6% and 10% water added, nominal 2 to 5 mg/mL, visual inspection): improved or nearly complete solubility
SMILES: CC[C@H](C)[C@H](NC(=O)[C@@H]1CCCN1C(=O)CNC(=O)[C@H](Cc1ccccc1)NC(=O)[C@H](CC(N)=O)NC(=O)[C@H](CC(N)=O)NC(=O)[C@H](CO)NC(=O)[C@H](CO)NC(=O)[C@H](Cc1c[nH]cn1)NC(=O)[C@@H](NC(=O)[C@H](CC(C)C)NC(=O)[C@H](Cc1ccccc1)NC(=O)[C@H](CC(N)=O)NC(=O)[C@H](C)NC(=O)[C@H](CC(C)C)NC(=O)[C@H](CCCNC(=N)N)NC(=O)[C@H](CCC(N)=O)NC(=O)[C@@H](NC(=O)[C@H](C)NC(=O)[C@@H]1CSSC[C@H](NC(=O)[C@@H](N)CCCCN)C(=O)N[C@@H](CC(N)=O)C(=O)N[C@@H]([C@@H](C)O)C(=O)N[C@@H](C)C(=O)N[C@@H]([C@@H](C)O)C(=O)N1)[C@@H](C)O)C(C)C)C(=O)N[C@@H](CC(C)C)C(=O)N1CCC[C@H]1C(=O)N1CCC[C@H]1C(=O)N[C@H](C(=O)N[C@@H](CC(N)=O)C(=O)N[C@H](C(=O)NCC(=O)N[C@@H](CO)C(=O)N[C@@H](CC(N)=O)C(=O)N[C@H](C(=O)N[C@@H](Cc1ccc(O)cc1)C(N)=O)[C@@H](C)O)C(C)C)[C@@H](C)O [pramlintide]
